From US20230295238A1, “INSULIN RECEPTOR-MEDIATED ENHANCEMENT OF GENE TRANSFER” (THE SCRIPPS RESEARCH INSTITUTE, priority 2020, published 2023)

System: HEK293T cells
Type: cell-based, human
Conditions: IR-Fc preincubated with FLuc-encoding eAAV9; luciferase activity 24 h; read-out: IC50 of IR-Fc for decrease in transduction by eAAV9

Substance: IR-Fc: construct consisting of the human IR ectodomain fused to an Fc tag, used as a transduction inhibitor
- IC50: 600 pM
